Results from PubChem BioAssay AID435022 (Sanford-Burnham Center for Chemical Genomics, 2010).
The list shows a part of the results, in another mix than the full data. Some of these compounds have results that are not shown, active ones among them. Active and inactive are the calls of the source. Cut-off read from the data, not from the text of the source: active = inhibition above about 35%; inactive = the rest.

test: lowers stimulated NF-kB luciferase signal in 697 B cells – cell-based, luminescence, uHTS, B-cell NF-kB inhibitor project, primary screen (AID 435022); conditions: 697 B-cell NF-kB luciferase reporter, PMA/ionomycin, 16 h; at 4 µM; stronger effect = higher value

Question: For `Cc1ccc(C(=O)NCC2(N3CCCCC3)CCCCC2)cc1`, which inhibition is on record?
Answer: inactive: 4.26%

Question: With `CC(C)N1C(=O)CC2(CCN(CCOC(=O)C(O)(c3ccccc3)c3ccccc3)CC2)C1=O` as the molecule, how does the inhibition read?
Answer: inactive: -21.4%

Question: For `CCN(CC)CC(C)C(C)OC(=O)C(O)(c1ccccc1)c1ccccc1` (centres undefined), which inhibition is on record?
Answer: inactive: -7.26%

Question: For `COc1cc(SC)ccc1C(=O)NCC1(N(C)C)CCCCC1`, which inhibition is on record?
Answer: inactive: -9.64%

Question: For `CN1[C@@H]2CC[C@H]1CC(OC(=O)C(O)(c1ccccc1)c1ccccc1)C2` (some centres undefined), which inhibition is on record?
Answer: inactive: -17.9%

Question: With `O=C(NCC1(N2CCCCC2)CCCCC1)c1cc([N+](=O)[O-])ccc1Cl` as the molecule, how does the inhibition read?
Answer: inactive: 17.1%

Question: For `CCN1CCCC(OC(=O)C2(O)c3ccccc3C=Cc3ccccc32)C1` (centres undefined), which inhibition is on record?
Answer: inactive: -15.1%

Question: For `Cc1cc(C(=O)NCC2(N3CCCCC3)CCCCC2)ccc1[N+](=O)[O-]`, which inhibition is on record?
Answer: inactive: -1.89%

Question: For `O=C(NCC1(N2CCCCC2)CCCCC1)c1cccc(Br)c1`, which inhibition is on record?
Answer: inactive: 0.411%

Question: With `COc1ccc(C(=O)NCC2(N(C)C)CCCCC2)cc1` as the molecule, how does the inhibition read?
Answer: inactive: -7.44%

Question: Which inhibition does the source give for `C=CCN1CCN(CCOC(=O)C(O)(c2ccccc2)c2ccccc2)CC1` here?
Answer: inactive: -5.07%

Question: For `O=C(NCC1(N2CCCCC2)CCCCC1)c1cc(F)c(F)cc1Cl`, which inhibition is on record?
Answer: inactive: 13.3%

Question: Which inhibition does the source give for `Cc1ccccc1C(=O)NCC1(N2CCCCC2)CCCCC1` here?
Answer: inactive: 6.35%

Question: For `CN(C)c1ccc(C(=O)NCC2(N(C)C)CCCCC2)cc1`, which inhibition is on record?
Answer: inactive: -20%

Question: For `CN(C)C1CCCC1OC(=O)C(O)(c1ccccc1)c1ccccc1` (centres undefined), which inhibition is on record?
Answer: inactive: 13%

Question: For `O=C(NCC1(N2CCCCC2)CCCCC1)c1cccc(Cl)c1`, which inhibition is on record?
Answer: inactive: 5.27%

Question: For `COc1cccc(C(=O)NCC2(N3CCCCC3)CCCCC2)c1`, which inhibition is on record?
Answer: inactive: 17%

Question: With `COc1ccc(Cl)cc1C(=O)NCC1(N(C)C)CCCCC1` as the molecule, how does the inhibition read?
Answer: inactive: 1.77%

Question: Which inhibition does the source give for `COc1cc(C(=O)NCC2(N(C)C)CCCCC2)c([N+](=O)[O-])cc1OC` here?
Answer: inactive: -2.87%

Question: For `CN(C)C1(CNC(=O)c2ccc(Br)cc2)CCCCC1`, which inhibition is on record?
Answer: inactive: -15.5%

Question: For `CN(C)c1cccc(C(=O)NCC2(N(C)C)CCCCC2)c1`, which inhibition is on record?
Answer: inactive: -16.7%

Question: For `CC(C)Oc1ccc(C(=O)NCC2(N(C)C)CCCCC2)cc1`, which inhibition is on record?
Answer: inactive: 3.03%

Question: With `COc1ccc(Br)c(C(=O)NCC2(N3CCCCC3)CCCCC2)c1` as the molecule, how does the inhibition read?
Answer: inactive: 9.2%

Question: Which inhibition does the source give for `O=C(OC1CN2CCC1CC2)C(CO)(c1ccccc1)c1ccccc1` (centres undefined) here?
Answer: inactive: 8.19%
